Source: paper PMC4734667 (PLoS ONE, 2016)

Sequences of proteins named here, by UniProt entry; tags and fusion partners are left off. Residues count along the entry.
UniProt Q12879, 23-1464: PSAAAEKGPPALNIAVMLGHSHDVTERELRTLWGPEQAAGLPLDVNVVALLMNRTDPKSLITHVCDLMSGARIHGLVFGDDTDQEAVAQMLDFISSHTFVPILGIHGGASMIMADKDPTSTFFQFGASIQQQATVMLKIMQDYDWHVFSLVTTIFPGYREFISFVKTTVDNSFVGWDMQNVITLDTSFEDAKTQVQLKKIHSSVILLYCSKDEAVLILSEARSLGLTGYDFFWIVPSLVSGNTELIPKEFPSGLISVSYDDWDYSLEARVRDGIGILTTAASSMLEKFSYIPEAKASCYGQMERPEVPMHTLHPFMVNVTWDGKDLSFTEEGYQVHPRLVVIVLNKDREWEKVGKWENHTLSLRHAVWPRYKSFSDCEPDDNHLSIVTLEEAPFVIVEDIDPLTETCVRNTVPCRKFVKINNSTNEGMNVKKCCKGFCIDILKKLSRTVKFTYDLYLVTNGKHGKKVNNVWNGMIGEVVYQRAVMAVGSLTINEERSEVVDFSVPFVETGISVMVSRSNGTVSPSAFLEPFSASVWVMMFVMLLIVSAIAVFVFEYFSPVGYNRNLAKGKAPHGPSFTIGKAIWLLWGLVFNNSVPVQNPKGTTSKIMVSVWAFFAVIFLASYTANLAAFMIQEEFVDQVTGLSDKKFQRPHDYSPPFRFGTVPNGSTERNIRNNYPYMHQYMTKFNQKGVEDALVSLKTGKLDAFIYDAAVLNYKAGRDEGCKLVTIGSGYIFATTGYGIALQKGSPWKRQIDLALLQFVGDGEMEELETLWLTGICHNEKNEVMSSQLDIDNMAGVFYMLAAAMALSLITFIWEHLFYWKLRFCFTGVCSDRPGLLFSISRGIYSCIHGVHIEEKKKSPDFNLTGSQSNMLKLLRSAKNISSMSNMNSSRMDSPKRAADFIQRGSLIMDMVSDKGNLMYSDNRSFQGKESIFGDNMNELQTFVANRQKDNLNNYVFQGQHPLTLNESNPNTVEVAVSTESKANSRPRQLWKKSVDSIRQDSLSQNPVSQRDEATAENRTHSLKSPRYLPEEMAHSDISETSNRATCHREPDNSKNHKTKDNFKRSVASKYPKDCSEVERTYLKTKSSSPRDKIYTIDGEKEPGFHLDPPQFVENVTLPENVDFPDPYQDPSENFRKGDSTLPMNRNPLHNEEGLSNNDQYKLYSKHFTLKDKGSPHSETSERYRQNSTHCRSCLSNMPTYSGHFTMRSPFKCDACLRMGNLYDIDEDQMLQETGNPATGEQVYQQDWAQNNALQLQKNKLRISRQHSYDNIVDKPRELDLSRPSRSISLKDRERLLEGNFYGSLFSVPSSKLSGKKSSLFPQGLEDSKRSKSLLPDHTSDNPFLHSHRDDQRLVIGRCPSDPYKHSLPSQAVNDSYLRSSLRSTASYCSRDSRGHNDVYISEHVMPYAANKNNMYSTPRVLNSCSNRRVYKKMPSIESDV
UniProt Q13224, 27-1484: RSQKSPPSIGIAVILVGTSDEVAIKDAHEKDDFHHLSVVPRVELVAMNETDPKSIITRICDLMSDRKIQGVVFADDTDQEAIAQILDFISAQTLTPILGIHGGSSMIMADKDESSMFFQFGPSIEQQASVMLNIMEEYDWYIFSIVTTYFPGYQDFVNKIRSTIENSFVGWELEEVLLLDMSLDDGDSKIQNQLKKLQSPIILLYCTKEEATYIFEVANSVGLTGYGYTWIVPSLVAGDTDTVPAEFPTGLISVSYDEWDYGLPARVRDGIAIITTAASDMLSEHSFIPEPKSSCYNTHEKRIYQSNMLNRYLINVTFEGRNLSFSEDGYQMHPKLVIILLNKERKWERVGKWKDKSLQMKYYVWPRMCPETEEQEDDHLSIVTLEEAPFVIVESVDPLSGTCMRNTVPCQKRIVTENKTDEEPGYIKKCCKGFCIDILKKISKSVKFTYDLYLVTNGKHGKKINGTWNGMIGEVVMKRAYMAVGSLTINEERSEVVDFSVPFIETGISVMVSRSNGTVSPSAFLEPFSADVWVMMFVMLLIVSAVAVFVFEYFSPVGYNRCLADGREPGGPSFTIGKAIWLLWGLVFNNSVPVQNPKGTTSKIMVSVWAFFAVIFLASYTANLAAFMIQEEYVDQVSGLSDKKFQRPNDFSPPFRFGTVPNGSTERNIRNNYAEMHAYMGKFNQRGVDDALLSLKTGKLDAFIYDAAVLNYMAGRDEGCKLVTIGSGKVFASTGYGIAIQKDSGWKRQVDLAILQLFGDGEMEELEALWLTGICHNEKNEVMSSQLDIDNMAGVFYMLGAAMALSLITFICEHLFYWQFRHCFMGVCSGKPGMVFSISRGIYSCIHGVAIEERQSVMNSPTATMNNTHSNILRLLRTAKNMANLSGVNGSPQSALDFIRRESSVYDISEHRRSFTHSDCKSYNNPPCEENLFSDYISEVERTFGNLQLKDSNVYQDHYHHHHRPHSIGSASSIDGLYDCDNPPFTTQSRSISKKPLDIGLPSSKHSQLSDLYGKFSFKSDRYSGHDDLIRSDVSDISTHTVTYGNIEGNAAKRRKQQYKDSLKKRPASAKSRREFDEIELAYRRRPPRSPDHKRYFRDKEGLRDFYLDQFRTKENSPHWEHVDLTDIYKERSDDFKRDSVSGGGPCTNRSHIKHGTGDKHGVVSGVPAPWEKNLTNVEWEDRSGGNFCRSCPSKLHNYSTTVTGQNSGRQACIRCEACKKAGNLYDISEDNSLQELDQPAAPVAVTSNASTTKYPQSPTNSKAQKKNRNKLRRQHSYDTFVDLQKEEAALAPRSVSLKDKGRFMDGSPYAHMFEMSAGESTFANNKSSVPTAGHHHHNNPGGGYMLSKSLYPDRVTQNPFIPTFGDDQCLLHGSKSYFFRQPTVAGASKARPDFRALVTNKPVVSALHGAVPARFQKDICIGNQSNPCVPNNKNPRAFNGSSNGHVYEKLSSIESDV
UniProt O15399, 28-1336: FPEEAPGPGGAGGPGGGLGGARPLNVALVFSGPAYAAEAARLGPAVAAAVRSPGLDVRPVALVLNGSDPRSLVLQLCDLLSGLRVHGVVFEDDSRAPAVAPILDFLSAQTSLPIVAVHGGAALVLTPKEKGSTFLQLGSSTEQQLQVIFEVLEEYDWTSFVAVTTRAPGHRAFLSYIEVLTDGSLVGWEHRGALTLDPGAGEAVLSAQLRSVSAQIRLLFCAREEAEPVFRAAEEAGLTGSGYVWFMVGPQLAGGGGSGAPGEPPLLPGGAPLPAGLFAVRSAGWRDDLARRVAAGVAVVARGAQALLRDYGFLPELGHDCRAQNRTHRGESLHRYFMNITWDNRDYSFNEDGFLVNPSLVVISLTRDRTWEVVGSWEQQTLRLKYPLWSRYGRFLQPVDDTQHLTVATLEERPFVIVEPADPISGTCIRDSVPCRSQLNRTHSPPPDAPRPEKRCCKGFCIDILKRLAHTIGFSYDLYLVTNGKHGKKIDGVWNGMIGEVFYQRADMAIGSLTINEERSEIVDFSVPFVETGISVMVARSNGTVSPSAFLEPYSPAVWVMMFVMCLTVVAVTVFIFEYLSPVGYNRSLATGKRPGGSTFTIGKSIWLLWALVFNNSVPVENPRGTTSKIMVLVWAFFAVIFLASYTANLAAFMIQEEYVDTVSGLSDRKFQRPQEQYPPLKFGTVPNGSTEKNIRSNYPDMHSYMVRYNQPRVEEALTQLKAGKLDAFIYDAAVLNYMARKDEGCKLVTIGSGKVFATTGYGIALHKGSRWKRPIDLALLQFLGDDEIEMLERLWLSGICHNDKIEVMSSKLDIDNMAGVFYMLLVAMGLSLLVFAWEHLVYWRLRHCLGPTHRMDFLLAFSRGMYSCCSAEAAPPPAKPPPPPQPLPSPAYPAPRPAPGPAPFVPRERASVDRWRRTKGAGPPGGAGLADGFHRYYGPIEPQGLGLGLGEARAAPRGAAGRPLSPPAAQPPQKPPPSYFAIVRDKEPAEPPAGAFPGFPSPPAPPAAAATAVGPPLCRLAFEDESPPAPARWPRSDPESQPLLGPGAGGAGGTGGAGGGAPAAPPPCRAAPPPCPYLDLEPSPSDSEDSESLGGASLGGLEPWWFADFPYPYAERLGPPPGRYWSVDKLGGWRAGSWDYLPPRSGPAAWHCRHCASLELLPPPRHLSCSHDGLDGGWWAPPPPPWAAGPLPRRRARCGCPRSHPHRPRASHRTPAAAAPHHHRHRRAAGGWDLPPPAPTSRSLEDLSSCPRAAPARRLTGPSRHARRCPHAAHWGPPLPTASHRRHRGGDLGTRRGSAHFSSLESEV

Columns and labels:
Type in all cases: cell-based
[1] = biological target: T1, human GluN2A (Homo sapiens, UniProt Q05586+Q12879); experiment: Ca2+ fluorescence (fluo-8) assay in HEK cells expressing GluN2A; conditions: inhibition of Ca2+ response, glutamate and glycine 3 μM each, read-out: GluN2A IC50 (nM) ± SEM (n)
T1 construct: host or cells: HEK293, tetracycline-induced
Description: HEK293 cells expressing the human GRIN1/GRIN2A genes (Chantest Catalog #: CT6120) were grown as an adherent monolayer at 37°C, 5% CO2 in DMEM/Ham’s F12 + 10% tetracycline-screened FBS (Hyclone SH3007.03T) and 500 μg/ml G418. […] To prepare the cells for an experiment, they were rinsed with Dulbecco’s PBS (Ca^2+ and Mg^2+ free) and detached from the flask with TrypLE™ Express (Life Technologies, Carlsbad, CA) using the manufacturer’s recommended methods. Cells collected from the flask were washed twice in Ca^2+/Mg^2+-free Hanks Balanced Salt Solution + 20 mM HEPES (HBSS), and counted and assessed for viability with trypan blue. Washed cells were then dye-loaded by resuspending in Fluo-8/AM calcium sensitive dye plus Component B (AAT Bioquest, Sunnyvale, CA) diluted in HBSS. […]
To initiate an assay, 10 μl of test compound or buffer was added to each well of the cell plate and pre-incubated for 10 minutes in the dark. After 10 minutes, the cell plate was placed in a FDSS 6000 plate reader (Hamamatsu Photonics, Middlesex, NJ); baseline fluorescence readings were collected for 20 seconds. Next, 25 μl of agonist solution (3 μM glutamate, 3 μM glycine, and 1 mM Ca^2+ in HBSS) was added and the change in fluorescence was recorded for 3 minutes.
Results were calculated by computing the ratio of maximum fluorescence achieved during agonist-addition phase vs. baseline fluorescence.

[2] = biological target: T2, human GluN2B (Homo sapiens, UniProt Q05586+Q13224); experiment: Ca2+ fluorescence (fluo-8) assay in HEK cells expressing GluN2B; conditions: inhibition of Ca2+ response, glutamate and glycine 3 μM each, read-out: GluN2B IC50 (nM) ± SEM (n)
T2 construct: expressed in transfected cells; host or cells: HEK cells

[3] = biological target: T3, human GluN2D (Homo sapiens, UniProt O15399+Q05586); experiment: Ca2+ fluorescence (fluo-8) assay in HEK cells expressing GluN2D; conditions: inhibition of Ca2+ response, glutamate and glycine 3 μM each, read-out: GluN2D IC50 (nM) ± SEM (n)
T3 construct: expressed in transfected cells; host or cells: HEK cells

For Ro 25–6981, which IC50 [1] is on record?
Its IC50 is over 10000 nM.

And the IC50 [2]?
Its IC50 is 20 ± 1 nM.

And the IC50 [3]?
Its IC50 is over 10000 nM.
